The values that follow are results of earlier work, collected in publication PMC10531186.

This data set addresses chymotrypsin (Bos taurus) (UniProt P00766). As to the kind of experiment: given as Ka.

Regarding BPTI (from UniProt P00974), the Kd was 58.8 nM.
